In patent US20050032187A1, “Novel peptide-forming enzyme, microbe producing the enzyme and method for producing peptide using them” (Ajinomoto Co., Inc., priority 2003, published 2005):
Residues, ends and D or L forms follow the SMILES beside them.

system: peptide-producing enzyme (Mono S fraction) of Empedobacter brevis strain FERM BP-8113; test: Production of L-alanyl-L-glutamine from L-alanine methyl ester and L-glutamine with enzyme fraction; type: biochemical; details: 3 μl enzyme fraction, 100 mM L-alanine methyl ester hydrochloride, 200 mM L-glutamine, pH 9.0, 18° C., enzyme-added lot

| Compound | concentration of by-product L-Ala-L-Ala-L-Gln [mM] |
| --- | --- |
| L-Ala-L-Ala-L-Gln | 1.3 |

system: peptide-producing enzyme (Mono S fraction) of Empedobacter brevis strain FERM BP-8113; test: Enzyme substrate specificity (peptide production); type: biochemical; design: key to Formed peptide (mM): +: those peptides for which production was confirmed but which were unable to be quantified due to the absence of a standard; a trace amount; details: 100 mM L-alanine methyl ester hydrochloride, L-amino acid 150 mM, pH 9.0, 25° C., 3 hours

| Compound | Formed peptide (mM) |
| --- | --- |
| C[C@H](N)C(=O)N[C@@H](CS)C(=O)O [L-Ala-L-CySH] (H-Ala-Cys-OH) | + |
| C[C@H](N)C(=O)N1CCC[C@H]1C(=O)O [L-Ala-L-Pro] (H-Ala-Pro-OH) | tr |

same assay, conditions: L-amino acid methyl ester hydrochloride 100 mM, 150 mM L-glutamine, pH 9.0, 25° C., 3 hours; 0.1% Tween-80 with L-Trp-OMe and L-Tyr-OMe

| Compound | Formed peptide (mM) | Formed peptide [mM] |
| --- | --- | --- |
| NC(=O)CC[C@H](NC(=O)[C@@H](N)CC(N)=O)C(=O)O [L-Asn-L-Gln] (H-Asn-Gln-OH) | + |  |
| NC(=O)CC[C@H](NC(=O)[C@@H](N)CS)C(=O)O [L-CySH-L-Gln] (H-Cys-Gln-OH) | + |  |
| NC(=O)CC[C@H](NC(=O)[C@@H](N)CCC(N)=O)C(=O)O [L-Gln-L-Gln] (H-Gln-Gln-OH) |  | 0.3 |
| NC(=O)CC[C@H](NC(=O)[C@@H](N)Cc1cnc[nH]1)C(=O)O [L-His-L-Gln] (H-His-Gln-OH) | + |  |
| CC(C)C[C@H](N)C(=O)N[C@@H](CCC(N)=O)C(=O)O [L-Leu-L-Gln] (H-Leu-Gln-OH) | + |  |
| NCCCC[C@H](N)C(=O)N[C@@H](CCC(N)=O)C(=O)O [L-Lys-L-Gln] (H-Lys-Gln-OH) | + |  |
| NC(=O)CC[C@H](NC(=O)[C@@H](N)Cc1ccccc1)C(=O)O [L-Phe-L-Gln] |  | 0.9 |
| NC(=O)CCC(NC(=O)C(N)Cc1c[nH]c2ccccc12)C(=O)O [L-Trp-L-Gln] (H-Trp-Gln-OH; configuration not given here) | + |  |
| NC(=O)CC[C@H](NC(=O)[C@@H](N)CC(=O)O)C(=O)O [α-L-Asp-L-Gln] (H-Asp-Gln-OH) | tr |  |
| NC(=O)CC[C@H](NC(=O)[C@@H](N)CCC(=O)O)C(=O)O [α-L-Glu-L-Gln] (H-Glu-Gln-OH) | + |  |
| NC(=O)CC[C@H](NC(=O)C[C@H](N)C(=O)O)C(=O)O [β-L-Asp-L-Gln] | tr |  |
| NC(=O)CC[C@H](NC(=O)CC[C@H](N)C(=O)O)C(=O)O [γ-L-Glu-L-Gln] | + |  |

same assay, conditions: L-amino acid methyl ester hydrochloride 100 mM, L-amino acid 150 mM, pH 9.0, 25° C., 3 hours

| Compound | Formed peptide [mM] |
| --- | --- |
| CSCC[C@H](NC(=O)[C@@H](N)CCCN=C(N)N)C(=O)O [L-Arg-L-Met] (H-Arg-Met-OH) | 0.7 |
| CC[C@H](C)[C@H](N)C(=O)N[C@@H](CCSC)C(=O)O [L-Ile-L-Met] (H-Ile-Met-OH) | 10.0 |
| CC(C)[C@H](NC(=O)[C@@H](N)[C@@H](C)O)C(=O)O [L-Thr-L-Val] (H-Thr-Val-OH) | 0.7 |
